Protein sequences, listed by entry. Tags and fused reporters are not part of them. Residues count along the entry.
UniProt P10636, 1-441 isoform 8: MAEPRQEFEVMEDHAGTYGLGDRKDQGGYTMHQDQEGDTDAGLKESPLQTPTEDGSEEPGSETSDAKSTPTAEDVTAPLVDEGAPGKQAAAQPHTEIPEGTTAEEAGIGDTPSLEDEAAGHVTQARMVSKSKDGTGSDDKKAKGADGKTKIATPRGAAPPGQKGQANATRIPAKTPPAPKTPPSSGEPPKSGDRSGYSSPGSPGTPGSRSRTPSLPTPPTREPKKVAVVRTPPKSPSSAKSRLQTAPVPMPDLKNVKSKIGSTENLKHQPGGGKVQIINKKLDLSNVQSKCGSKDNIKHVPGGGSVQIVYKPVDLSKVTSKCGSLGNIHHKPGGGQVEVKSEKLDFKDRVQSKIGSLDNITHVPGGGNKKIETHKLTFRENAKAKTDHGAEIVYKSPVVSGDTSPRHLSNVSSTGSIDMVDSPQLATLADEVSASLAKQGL
UniProt P05067, 672-713 limits assumed: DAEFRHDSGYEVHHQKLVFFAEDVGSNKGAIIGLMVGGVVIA
UniProt P56817, 46-501 limits assumed: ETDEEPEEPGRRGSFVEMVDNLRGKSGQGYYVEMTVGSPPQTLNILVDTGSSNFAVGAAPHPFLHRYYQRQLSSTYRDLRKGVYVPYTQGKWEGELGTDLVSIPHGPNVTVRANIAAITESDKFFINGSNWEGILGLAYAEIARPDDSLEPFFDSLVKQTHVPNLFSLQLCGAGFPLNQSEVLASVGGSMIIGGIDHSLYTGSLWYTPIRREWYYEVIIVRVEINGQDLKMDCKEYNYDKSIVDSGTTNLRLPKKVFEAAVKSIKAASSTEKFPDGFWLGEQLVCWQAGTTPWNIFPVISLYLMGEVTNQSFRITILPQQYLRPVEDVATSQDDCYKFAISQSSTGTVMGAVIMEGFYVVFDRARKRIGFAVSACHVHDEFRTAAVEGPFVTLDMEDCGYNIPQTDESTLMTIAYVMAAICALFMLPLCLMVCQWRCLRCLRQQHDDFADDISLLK

According to article PMC7594877, “Multidirectional in vitro and in cellulo studies as a tool for identification of multi-target-directed ligands aiming at symptoms and causes of Alzheimer’s disease” (Journal of Enzyme Inhibition and Medicinal Chemistry, 2020):

What was measured:
tau = tau (Homo sapiens, UniProt P10636); assay: In cellulo tau aggregation inhibition, Thioflavin S fluorescence in E. coli overexpressing tau; assay type: cell-based, Escherichia coli; details: at 10 µM; mean of three experiments ± SEM
Aβ42 = Aβ42 (Homo sapiens, UniProt P05067); assay: In cellulo Aβ42 aggregation inhibition, Thioflavin S fluorescence in E. coli overexpressing Aβ42; assay type: cell-based, Escherichia coli; details: at 10 µM; mean of three experiments ± SEM
human BACE1 = human BACE1 (Homo sapiens, UniProt P56817); details: read-out: hBACE1 IC50; mean of three experiments ± SEM

| Compound | In cellulo tau inhibition % (tau) [%] | In cellulo Aβ42 inhibition % (Aβ42) [%] | IC50 (human BACE1) [µM] |
| --- | --- | --- | --- |
| CN(CCN1CCN(c2cccc3c2ccn3S(=O)(=O)c2ccccc2)CC1)Cc1ccccc1 | 43.8 ± 5.6 | 18.1 ± 2.7 | 19.5 |
| O=S(=O)(c1ccccc1)n1ccc2c(N3CCN(CCNC4CCN(Cc5ccccc5)CC4)CC3)cccc21 | 34.9 ± 5.6 | 32.0 ± 3.7 | 8.31 |
| CN(CCCN1CCN(c2cccc3c2ccn3Cc2ccccc2)CC1)Cc1ccccc1 | 21.2 ± 4.9 | 29.9 ± 3.4 | 37.5 |
